Test results reported in US20070184020A1, “COMBINATION OF RADIO WAVES WITH PHARMACOLOGICALLY ACTIVE SUBSTANCES” (priority 2004, published 2007).

Test system: metastatic colorectal carcinoma (mCRC)
Experiment: Treatment of carcinomas of the large intestine with cetuximab, alone or combined with electrohyperthermia
Type: in vivo, human
Conditions: patients, cetuximab 400 mg/m^2 initial, 250 mg/m^2 weekly, plus local electrohyperthermia 1 h on three days per week; after 60 days; compared with cetuximab only; FIG. 1
Protocol: The patients are treated by approaching the electrode(s) as close as possible to the surface of the skin and in that the distance of said electrode(s) to the tumor is as small as possible. The treatment period is one hour on three days per week. It is substantial that neither during nor after the treatment, any side effects can be observed.
Treatment of carcinomas of the large intestine with cetuximab, as well as with cetuximab in combination with electrohyperthermia.
Each group was treated with the monoclonal antibody cetixumab (400 mg/m^2 initial dosage, 250 mg/M^2 weekly dosage) and 2 of the 4 patients were additionally treated with local electrohyperthermia on three days per week (Monday, Wednesday and Friday) for respectively one hour. The treatment was continued during a period of 10 weeks.

In the case of cetuximab, the “CEA (tumor marker)” value is reported as “significantly lower”.
